Literature values in publication PMC11019746, “Illuminating Neuropeptide Y Y4 Receptor Binding: Fluorescent Cyclic Peptides with Subnanomolar Binding Affinity as Novel Molecular Tools” (ACS Pharmacology & Translational Science, 2024).

Sequences of proteins named here, by UniProt entry; tags and fusion partners are left off.
UniProt P25929, whole entry: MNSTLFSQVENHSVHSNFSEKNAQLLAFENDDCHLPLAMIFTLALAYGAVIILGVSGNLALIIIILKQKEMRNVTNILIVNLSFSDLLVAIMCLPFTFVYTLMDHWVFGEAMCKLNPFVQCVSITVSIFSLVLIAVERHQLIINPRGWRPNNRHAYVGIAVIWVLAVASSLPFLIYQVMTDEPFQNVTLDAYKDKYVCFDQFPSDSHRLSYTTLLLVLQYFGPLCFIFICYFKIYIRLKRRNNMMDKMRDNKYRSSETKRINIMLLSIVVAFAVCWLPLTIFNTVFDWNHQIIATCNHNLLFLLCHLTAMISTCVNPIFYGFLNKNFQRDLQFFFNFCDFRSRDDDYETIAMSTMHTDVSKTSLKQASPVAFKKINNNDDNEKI
UniProt P49146, whole entry: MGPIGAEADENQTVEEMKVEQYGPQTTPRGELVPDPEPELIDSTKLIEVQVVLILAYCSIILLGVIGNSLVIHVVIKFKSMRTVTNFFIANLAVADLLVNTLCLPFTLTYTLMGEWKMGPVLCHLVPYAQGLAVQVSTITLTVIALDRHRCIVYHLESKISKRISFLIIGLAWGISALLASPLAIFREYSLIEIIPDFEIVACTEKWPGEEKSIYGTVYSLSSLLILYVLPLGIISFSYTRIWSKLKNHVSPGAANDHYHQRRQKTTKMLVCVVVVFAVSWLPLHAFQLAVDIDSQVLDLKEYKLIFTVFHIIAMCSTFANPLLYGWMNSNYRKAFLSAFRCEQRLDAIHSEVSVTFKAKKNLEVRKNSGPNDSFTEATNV
UniProt Q15761, whole entry: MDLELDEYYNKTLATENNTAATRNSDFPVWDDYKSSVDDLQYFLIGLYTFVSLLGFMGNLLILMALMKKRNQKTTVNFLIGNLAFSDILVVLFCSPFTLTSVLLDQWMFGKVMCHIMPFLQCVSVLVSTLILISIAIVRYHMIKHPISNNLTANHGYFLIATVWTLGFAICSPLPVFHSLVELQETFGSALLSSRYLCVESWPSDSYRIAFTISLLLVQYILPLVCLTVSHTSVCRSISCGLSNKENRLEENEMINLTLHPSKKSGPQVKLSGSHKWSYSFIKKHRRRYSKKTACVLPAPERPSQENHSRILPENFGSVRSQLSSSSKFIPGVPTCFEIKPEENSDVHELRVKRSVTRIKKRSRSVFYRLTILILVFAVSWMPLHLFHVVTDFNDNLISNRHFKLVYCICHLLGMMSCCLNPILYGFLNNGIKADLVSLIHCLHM
UniProt P50391, whole entry: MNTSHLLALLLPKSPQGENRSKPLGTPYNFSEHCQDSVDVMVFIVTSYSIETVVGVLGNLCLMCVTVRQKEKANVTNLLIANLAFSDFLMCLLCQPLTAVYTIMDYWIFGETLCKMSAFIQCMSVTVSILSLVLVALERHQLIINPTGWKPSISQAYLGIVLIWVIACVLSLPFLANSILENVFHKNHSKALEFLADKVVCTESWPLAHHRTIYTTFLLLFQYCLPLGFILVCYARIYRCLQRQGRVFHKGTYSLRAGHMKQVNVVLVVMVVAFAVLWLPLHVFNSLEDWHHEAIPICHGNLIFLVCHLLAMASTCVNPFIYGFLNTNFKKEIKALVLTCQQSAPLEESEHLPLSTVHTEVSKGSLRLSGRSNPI

What was measured:
[1] = target: hY1R (Homo sapiens, UniProt P25929); settings: cited from earlier work
[2] = target: hY2R (Homo sapiens, UniProt P49146); settings: cited from earlier work; for Ki: read-out: Ki hY2R
[3] = target: hY5R (Homo sapiens, UniProt Q15761); settings: cited from earlier work
[4] = target: hY4R (Homo sapiens, UniProt P50391); settings: relative to 1 μM hPP (100%); cited from earlier work

SMILES	pKi hY1R [1]	pKi ± SEM hY2R [2]	Ki [2] [nM]	pKi hY5R [3]	Ki ([1]; read-out: Ki hY1R) [nM]	pKi hY2R [2]	Ki ([3]; read-out: Ki hY5R) [nM]	Ca2+-aequorin Emax ± SEM [4]
CC(C)C[C@H](NC(=O)[C@@H]1CCCNC(N)=NC(=O)NCCCCNC(=O)[C@H](NC(=O)CCCN)CC(=O)N[C@@H](CCCNC(=N)N)C(=O)N[C@@H](Cc2ccc(O)cc2)C(=O)N1)C(=O)N[C@@H](CCCNC(=N)N)C(=O)N[C@@H](Cc1ccc(O)cc1)C(N)=O (single isomer, unassigned)	6	6.04 ± 0.07	950	6				
CC(C)C[C@H](NC(=O)[C@@H]1CCCNC(=N)NC(=O)NCCCCNC(=O)CCC(=O)N[C@@H](CCCNC(=N)N)C(=O)N[C@@H](Cc2ccc(O)cc2)C(=O)N1)C(=O)N[C@@H](CCCNC(=N)N)C(=O)N[C@@H](Cc1ccc(O)cc1)C(N)=O	5.5		> 10000	5.5	> 3000	5	> 3000	81 ± 1 ^c %

Marks after values point to notes of the source that are not given here.
